# Binding of CDR-mutated scFvs to a peptide of the spike HR2 region

Reference: Li et al. 2023, doi:10.1038/s41467-023-39022-2. File: FLAb, binding data.

Target: peptide PDVDLGDISGINAS, taken from heptad repeat 2 (HR2) of SARS-CoV-2 spike.

Ab-14 is the parent antibody, in scFv form: VH, then a 15-residue (Gly4Ser)3 linker, then VL. The heavy chain is unchanged in all variants.
VH: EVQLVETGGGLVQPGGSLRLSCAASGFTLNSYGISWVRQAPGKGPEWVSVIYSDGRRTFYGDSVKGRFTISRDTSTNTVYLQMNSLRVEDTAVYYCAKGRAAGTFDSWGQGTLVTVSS
VL: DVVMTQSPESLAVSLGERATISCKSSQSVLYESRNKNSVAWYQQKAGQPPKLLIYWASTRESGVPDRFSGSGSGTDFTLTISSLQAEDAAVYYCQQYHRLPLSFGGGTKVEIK

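The starting antibody came from a phage panning campaign against this peptide. The variants were designed computationally from a first round of random CDR variants and then made and measured. Their group label is 14L_En_HC (En: ensemble of fine-tuned language models; HC: hill climbing; a sequence that several methods proposed may carry one label only). The scFvs were displayed on barcoded MATa yeast, the peptide on MATalpha yeast. Pairs that bind mate more often; barcode pairs of the diploids are counted by sequencing. Each replicate has its own calibration line, from reference interactions of the BCL2 family. There are six technical replicates.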

The parent's light chain CDRs are KSSQSVLYESRNKNSVA, WASTRES, QQYHRLPLS; each variant's own CDRs replace them letter for letter. Values are log10 of the apparent Kd in nM; lower means stronger binding. An entry "n.d." has no value in the source: the pair was not observed among the diploids in that replicate. This suggests poor binding but is not conclusive. The range of this assay differs from that of the first round, and the authors advise against merging the two. The parent sequence was in this pool as ten entries: three were never detected, three once, and four in most replicates, with averages from 0.34 to 2.37. As a blank, each scFv also met three strains without target: over all light chain designs, 4% of these pairings were detected, typically at 2.64 and seldom below 1.59. The control count says in how many pairings with the empty strains this scFv gave a signal, with their mean in brackets. The authors averaged sequences with at least three values out of six and counted those with two or fewer as poor binders.

| CDR-L1 | CDR-L2 | CDR-L3 | log10 Kd, replicates | control signals |
|---|---|---|---|---|
| TLYQSMGYLSHNKNSIA | DMSRREN | QQYHRLPLS | 0.56 0.69 0.60 0.29 0.61 0.53 | 1 of 18 (2.17) |
| KLSIFHNVESINKSNVA | EMVTRES | QQYDRLPLS | n.d. n.d. 2.05 1.68 1.56 2.24 | 1 of 18 (2.90) |
| KIGHGLTTEMRNRNSVA | QTETRVT | QHYHRLPLS | n.d. 2.54 3.33 n.d. n.d. 3.19 | 2 of 18 (3.08) |
| HLSDTVMQGSYYGNSVA | QESTRAD | QQYHRLPLS | 0.40 0.24 0.13 -0.05 0.01 0.35 | 3 of 18 (3.06) |
| HISMMVGTKGYAKNSVA | NEQTRYD | QQYHRLPLS | -0.40 -0.42 -0.72 -0.74 -0.64 0.31 | 1 of 18 (0.91) |
| KLSSFHQVESINKSNVA | EMVTREN | QQYDRLPLS | n.d. n.d. 4.23 n.d. n.d. 2.86 | 0 of 18 |
| KLRESIHVEQKQKNNVA | DNSTRES | QDYHRLPLS | n.d. n.d. n.d. n.d. n.d. 2.86 | 2 of 18 (3.70) |
| KISASVNYEMVNGQSVA | QMSTREV | QQYDRLPLS | 0.35 0.20 0.57 0.49 0.57 0.57 | 1 of 18 (3.02) |
| KFSQSVMYMSSVYNSVA | QMSTRAE | QQYNRLPLS | 0.53 0.61 0.42 0.50 0.59 0.47 | 1 of 18 (2.08) |
| KISFQYRYEQLEKNSIA | EVQTRLK | QQYHRLPLS | 1.37 1.13 0.92 1.30 1.33 1.27 | 0 of 18 |
| TIGEVMHYESRNKNSVA | QTSTREE | QDYHRLPLS | 0.37 0.17 0.27 0.06 0.29 0.51 | 0 of 18 |
| NFSQMVLTGYTLKNSVA | HASTREE | QQYHRLPLI | 0.77 1.30 1.81 1.50 0.73 1.33 | 0 of 18 |
| KLSGFYRVETRNKNSVA | DNSTRES | QDYDRLPLS | n.d. n.d. n.d. n.d. n.d. n.d. | 0 of 18 |
| KLSQLFYKESSNKNNVA | EMTTRGS | QQYDRLPLS | 0.00 0.06 -0.10 -0.22 -0.12 0.05 | 0 of 18 |
| MMTMGSLGGMRARNNVA | QEETREK | QQYHRLPLI | 1.57 1.48 0.79 1.28 1.30 1.15 | 0 of 18 |
| KIGGVTNGLSFSKNSVA | EQSTRED | QQYDRLPLS | 1.32 1.20 1.20 0.91 1.60 1.04 | 1 of 18 (1.62) |
| SLYDATAMESRNKNPIA | DVSTRPS | QQYHRLPLS | 0.38 0.23 0.39 0.03 0.01 0.28 | 0 of 18 |
| TLTQSFGMESHNKNSVA | DLSTRGS | QQYHRLPLS | 0.38 0.04 0.55 0.01 0.24 0.36 | 2 of 18 (3.21) |
| HILQNMTYYSRNINSVA | HQSTRED | QQYHSLPLS | 1.40 1.61 1.16 1.34 0.96 1.25 | 2 of 18 (2.31) |
| MISDLTMYGSRNKNSVA | DLSTRGN | QQYDRLPLS | 0.28 0.00 0.23 0.05 0.04 0.15 | 0 of 18 |
| KISQMVNYESTHVNAVA | QMSTREE | QQYHRLPLS | -0.29 -0.43 -0.18 -0.31 -0.48 -0.15 | 0 of 18 |
| KLRQSTAYLSENKNSVA | ELTTRGK | QQYFRLPLS | 0.61 0.62 0.58 0.50 0.62 0.75 | 1 of 18 (2.55) |
| ILSDSVLTLSRNKHSVA | DNSTRES | QQYDRLPLS | 0.74 0.41 1.09 0.95 n.d. 0.95 | 0 of 18 |
| TIGQMFNGELRNRNSVA | QASTRES | QSYDRLPLS | 0.27 0.22 0.98 0.57 0.32 1.05 | 0 of 18 |
| KISQTFNVGTKNTNSLA | EMNTRGF | QDYHRLPLS | 1.71 1.31 1.87 0.93 1.22 1.10 | 1 of 18 (2.30) |
| SITQLVGYGQRNKNSVA | QMSTREN | QQYDRLPLS | -0.02 0.48 -0.30 0.23 0.01 0.31 | 1 of 18 (1.84) |
| QISMSVGMTSFNKNSVA | ENSTREN | QQYDRLPLS | 2.52 3.15 2.59 2.06 3.45 2.93 | 1 of 18 (2.72) |
| TLTQVQGMEEHNKDNVA | DLSTRGS | QQYHRLPLS | 0.18 -0.04 -0.24 -0.37 -0.47 -0.08 | 1 of 18 (4.55) |
| KISASVNYELVNGQSVA | QMSTREE | QQYDRLPLS | 1.44 1.51 1.09 1.49 1.25 1.84 | 0 of 18 |
| KLYQNVGTASHNKQSIA | DMERRED | QQYHRLPLS | 0.41 0.38 0.15 0.21 0.26 0.24 | 2 of 18 (2.23) |
| TLTQVQGMESHNRDNVA | DLSTRGN | QQYDRLPLS | 0.67 0.04 0.42 0.53 0.22 0.23 | 0 of 18 |
| NFSQMVLTGSTLRNSVA | HATTREE | QQYHRLPLI | 1.07 2.28 1.15 1.16 2.18 1.49 | 2 of 18 (2.52) |
| KLGQMTASESRNLNSVA | QMDTRES | QQYHRLPLS | 0.38 0.01 0.18 0.14 -0.06 0.26 | 1 of 18 (2.74) |
| HISQSVTMTSRNKNSVA | ENSTREA | QQYDRLPLS | 1.50 2.00 1.99 1.05 2.66 1.17 | 0 of 18 |
| TISMSMNWLTFNKDNIA | EESTREK | QQYDRLPLS | n.d. n.d. n.d. n.d. n.d. n.d. | 0 of 18 |
| TVSQVHGMLEHNKNSVA | DMNTRGS | QQYDRLPLS | -0.42 -0.83 -0.48 -0.57 -0.74 -0.89 | 0 of 18 |
| KIGHGLTTESRNRNSVA | QTETRVE | QHYHRLPLS | 1.95 2.50 2.30 n.d. n.d. 2.80 | 0 of 18 |
| KIYAATMLESHDKNSIA | DLNTRGN | QQYHRLPLS | 0.39 0.15 0.55 0.24 0.16 0.35 | 1 of 18 (3.41) |
| KISSLTMYESVNKNNIA | EMTTRPE | QSYHRLPLS | 0.83 0.74 0.71 0.50 0.29 1.13 | 1 of 18 (2.95) |
| LISGVWDYGSRNYNSVA | QTSTRES | QQYDRLPLD | 1.33 1.46 1.32 1.42 1.40 1.67 | 4 of 18 (3.73) |
| TLMQVGGYEMNAHNSIA | DLRTRES | QQYHRLPLS | 0.44 0.62 1.24 1.47 1.45 2.52 | 0 of 18 |
| KISMLTTFESRNKNSVA | ENSTRES | QSYHRLPLS | n.d. n.d. 2.81 3.32 n.d. n.d. | 2 of 18 (4.13) |
| ALSQSMDMTSRNGNSVA | DLTTRGN | QQYHRLPLS | 0.96 0.22 0.65 0.29 -0.27 0.16 | 0 of 18 |
| KISSLTMYESVNKNNIA | EMSTRPS | QSYHRLPLS | 0.62 0.85 1.01 0.95 0.52 1.03 | 1 of 18 (3.34) |

The first 2 variants above that were never detected:

CDR-L1,CDR-L2,CDR-L3,"log10 Kd, replicates",control signals
KLSGFYRVETRNKNSVA,DNSTRES,QDYDRLPLS,n.d. n.d. n.d. n.d. n.d. n.d.,0 of 18
TISMSMNWLTFNKDNIA,EESTREK,QQYDRLPLS,n.d. n.d. n.d. n.d. n.d. n.d.,0 of 18